{
  "source": "paper PMC11729679",
  "about": "“A nanocarrier containing carboxylic and histamine groups with dual action: acetylcholine hydrolysis and antidote atropine delivery” (2025)",
  "key": {"[1]": {"test": "Conductometry, critical association (CAC)", "conditions": "H2O, 25 °C, break point of conductivity vs RA concentration"}, "[2]": {"tested_on": "Human erythrocytes of blood groups II and IV", "test": "Hemagglutination test (plate wells, bright-field microscopy)"}, "[3]": {"tested_on": "WI38 human embryonic lung cell line", "test": "Cytotoxicity, Cell Viability BioApp (Cytell), WI38 cells"}, "[4]": {"tested_on": "human red blood cells (hRBCs)", "test": "Hemolysis of human red blood cells", "conditions": "for HC50: human red blood cells, 1 h, 37 °C"}, "[5]": {"tested_on": "Chang liver human liver cell line", "test": "Cytotoxicity, Cell Viability BioApp (Cytell), Chang liver cells", "conditions": "read-out: IC50 Chang liver"}, "[6]": {"conditions": "read-out: IC50 WI38, mean ± SD, triplicate"}, "[7]": {"conditions": "Chang liver cell line, mean ± SD, triplicate"}},
  "note": "Like-named read-outs stand apart in the source and are kept apart here.",
  "data": [
    {"smiles": "OCCCC1c2cc(c(O)c(CNCCc3c[nH]cn3)c2O)C(CCCO)c2cc(c(O)c(CNCCc3c[nH]cn3)c2O)C(CCCO)c2cc(c(O)c(CNCCc3c[nH]cn3)c2O)C(CCCO)c2cc1c(O)c(CNCCc1c[nH]cn1)c2O", "note": "(stereo not drawn)", "values": [
      {"measurement": "critical association constant (CAC)", "setting": "[1]", "result": 0.34, "unit": "mM"},
      {"measurement": "erythrocyte effect, bright-field microscopy", "setting": "[2]; at 25.5 μM", "result": "no agglutination and hemolysis"},
      {"measurement": "erythrocyte effect, bright-field microscopy", "setting": "[2]; at 220 μM", "result": "hemolysis"},
      {"measurement": "IC50", "setting": "[3]; [6]", "result": "> 220", "unit": "µM"},
      {"measurement": "hemolysis", "setting": "[4]; at 220 μM", "result": 100, "unit": "%"},
      {"measurement": "HC50", "setting": "[4]", "result": 177, "unit": "µM"},
      {"measurement": "IC50", "setting": "[5]; [7]", "result": "> 220", "unit": "µM"}
    ]},
    {"smiles": "O=C(O)COc1cc(OCC(=O)O)c2cc1C(CCCO)c1cc(c(OCC(=O)O)cc1OCC(=O)O)C(CCCO)c1cc(c(OCC(=O)O)cc1OCC(=O)O)C(CCCO)c1cc(c(OCC(=O)O)cc1OCC(=O)O)C2CCCO", "note": "(stereo not drawn)", "values": [
      {"measurement": "IC50", "setting": "[3]; read-out: IC50 WI38", "result": 570, "unit": "µM"},
      {"measurement": "IC50", "setting": "[3]; [6]", "result": 479, "unit": "µM"},
      {"measurement": "IC50", "setting": "[5]; [7]", "result": 571, "unit": "µM"},
      {"measurement": "IC50", "setting": "[5]; Chang liver human liver cell line", "result": 480, "unit": "µM"}
    ]},
    {"smiles": "O=C([O-])COc1cc(OCC(=O)[O-])c2cc1C(CCCO)c1cc(c(OCC(=O)[O-])cc1OCC(=O)[O-])C(CCCO)c1cc(c(OCC(=O)[O-])cc1OCC(=O)[O-])C(CCCO)c1cc(c(OCC(=O)[O-])cc1OCC(=O)[O-])C2CCCO.[Na+].[Na+].[Na+].[Na+].[Na+].[Na+].[Na+].[Na+]", "note": "(stereo not drawn)", "values": [
      {"measurement": "critical association constant (CAC)", "setting": "[1]", "result": 0.26, "unit": "mM"},
      {"measurement": "agglutination", "setting": "[2]; concentration range 13–1650 μM", "result": "did not induce agglutination"},
      {"measurement": "hemolysis", "setting": "[4]; at the highest concentration of 825 μM", "result": "did not cause hemolysis"},
      {"measurement": "HC50", "setting": "[4]", "result": ">528", "unit": "µM"}
    ]}
  ]
}
